Earlier results on one substance are cited in publication PMC12559310, “Tumor-targeted top1 inhibitor delivery with optimized parp inhibition in advanced solid tumors: a phase i trial of gapped scheduling” (Nature Communications, 2025).

Read-outs that look alike come from different tables or passages of the source.

This data set concerns patients with advanced solid malignancies. The note with it: cited from earlier work.
Setting [1] is: 44 subjects treated at the MTD (9 subjects).
[2] abbreviates: 44 subjects treated at the MTD (12 subjects).

For Poly-CD-PEG-Camptothecin [CRLX101], under setting [1], the TEAE back pain is given as 21% and the TEAE cough was 21%. In addition, where the note is “44 subjects treated at the MTD (11 subjects)”, the TEAE cystitis was 25%. Also, under setting [2], the TEAE constipation is recorded as 27% and the TEAE nausea is on record as 27%. In addition, the TEAE fatigue (44 subjects treated at the MTD (20 subjects)) is 46%. In addition, the TEAE back pain (Study CRLX-001, all subjects) is listed as 21%.
